Values of other authors in patent US20170202782A1 (Abraxis BioScience, LLC, priority 2014, published 2017).
pKi: −log10 of the molar value.

The chains behind the UniProt entries cited, without tags or fusion partners.
UniProt P10415, whole entry: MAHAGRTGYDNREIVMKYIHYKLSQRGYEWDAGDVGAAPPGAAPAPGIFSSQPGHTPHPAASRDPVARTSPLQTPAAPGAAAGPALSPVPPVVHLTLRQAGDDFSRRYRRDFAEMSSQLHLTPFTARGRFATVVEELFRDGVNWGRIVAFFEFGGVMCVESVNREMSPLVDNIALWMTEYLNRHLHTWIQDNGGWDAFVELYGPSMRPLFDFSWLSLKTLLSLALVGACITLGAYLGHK

Target: Bcl-2 (Homo sapiens, UniProt P10415)
Conditions: cited from earlier work

CC1(C)CCC(c2ccc(Cl)cc2)=C(CN2CCN(c3ccc(C(=O)NS(=O)(=O)c4ccc(N[C@H](CCN5CCOCC5)CSc5ccccc5)c(S(=O)(=O)C(F)(F)F)c4)cc3)CC2)C1 [ABT-263]
pKi: ≥ 9.30
